IC50 data for one substance are collected here from patent publication US20230219979A1, “PYRAZOLO[1,5-a]PYRIDINE COMPOUND, PREPARATION METHOD THEREFOR AND USE THEREOF” (SHENZHEN ZHONGGE BIOLOGICAL TECHNOLOGY CO., LTD., priority 2019, published 2023).

Sequences of proteins named here, by UniProt entry; tags and fusion partners are left off. Residues count along the entry.
UniProt P07949, 29-1114: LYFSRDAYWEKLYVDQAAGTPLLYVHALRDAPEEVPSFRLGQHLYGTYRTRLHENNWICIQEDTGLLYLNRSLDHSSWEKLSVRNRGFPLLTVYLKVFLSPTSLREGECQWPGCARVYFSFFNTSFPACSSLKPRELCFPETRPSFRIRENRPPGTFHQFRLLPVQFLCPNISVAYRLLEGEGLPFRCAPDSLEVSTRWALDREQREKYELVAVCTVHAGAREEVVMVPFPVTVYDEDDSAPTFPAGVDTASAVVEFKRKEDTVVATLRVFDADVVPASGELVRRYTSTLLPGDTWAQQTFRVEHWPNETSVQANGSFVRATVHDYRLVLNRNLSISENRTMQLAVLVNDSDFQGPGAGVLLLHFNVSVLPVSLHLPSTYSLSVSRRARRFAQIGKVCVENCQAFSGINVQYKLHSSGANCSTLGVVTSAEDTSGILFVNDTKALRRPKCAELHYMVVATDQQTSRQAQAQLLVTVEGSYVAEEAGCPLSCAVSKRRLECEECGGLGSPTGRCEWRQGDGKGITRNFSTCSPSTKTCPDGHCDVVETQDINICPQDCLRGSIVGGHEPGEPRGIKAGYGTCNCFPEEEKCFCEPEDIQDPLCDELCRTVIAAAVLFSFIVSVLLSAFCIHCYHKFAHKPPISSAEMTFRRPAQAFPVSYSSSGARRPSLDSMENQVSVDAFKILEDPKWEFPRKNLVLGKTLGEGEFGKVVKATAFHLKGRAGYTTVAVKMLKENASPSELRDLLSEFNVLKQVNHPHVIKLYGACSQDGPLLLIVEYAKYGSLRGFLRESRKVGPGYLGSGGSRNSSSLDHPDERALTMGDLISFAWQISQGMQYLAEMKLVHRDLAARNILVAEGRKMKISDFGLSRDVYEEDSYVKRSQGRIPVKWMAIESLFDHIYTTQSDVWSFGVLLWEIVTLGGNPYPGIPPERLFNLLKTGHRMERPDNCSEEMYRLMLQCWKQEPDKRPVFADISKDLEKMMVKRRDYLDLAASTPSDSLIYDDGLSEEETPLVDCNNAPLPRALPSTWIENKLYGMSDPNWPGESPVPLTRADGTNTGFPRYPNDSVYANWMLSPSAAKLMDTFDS

In the experiment the target is Wild-type RET kinase (Homo sapiens, UniProt P07949). The experiment in a line: HTRF method for testing the inhibitory activity of compounds against RET. The class given is biochemical. Background: TR-FRET usually uses a lanthanide donor and a delayed reading to cut background.

For “4-(6-(4-(6-methoxypyridin-3-yl)piperazin-1-yl)pyridin-3-yl)-N,N-dimethyl-6-(1-methyl-1H-pyrazol-4-yl)H-pyrazolo[1,5-a]pyridine-3-carboxamide [Compound 2]”, the half-maximal inhibitory concentration (IC50) (in general, the concentration at which inhibition is half-maximal) is > 10 µM.
